The experiment concerns the target Mu-type opioid receptor (Rattus norvegicus, UniProt P33535).

Sequences of proteins named here, by UniProt entry; tags and fusion partners are left off.
UniProt P33535, whole entry: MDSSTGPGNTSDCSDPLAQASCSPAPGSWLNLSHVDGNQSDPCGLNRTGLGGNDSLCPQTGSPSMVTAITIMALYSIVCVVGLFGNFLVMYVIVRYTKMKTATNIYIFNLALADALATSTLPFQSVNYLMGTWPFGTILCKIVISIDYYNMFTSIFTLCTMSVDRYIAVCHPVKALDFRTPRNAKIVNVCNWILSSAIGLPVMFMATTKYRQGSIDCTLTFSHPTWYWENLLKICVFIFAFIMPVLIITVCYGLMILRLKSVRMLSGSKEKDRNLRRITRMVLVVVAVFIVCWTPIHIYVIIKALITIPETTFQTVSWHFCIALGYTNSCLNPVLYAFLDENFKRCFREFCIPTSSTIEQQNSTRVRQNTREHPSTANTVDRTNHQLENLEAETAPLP

Broadly, the Ki is a measure of affinity in units of concentration, obtained from inhibition or displacement. Read a low Ki as higher affinity. Turning to `C[C@@H](NC(=O)[C@@H](N)Cc1ccc(O)cc1)C(=O)NCC(=O)N(C)[C@@H](Cc1ccccc1)C(=O)NCCO` [CAS_100929-53-1], the Ki was 8.9 nM.

The values are drawn from BindingDB's records for doi:10.1124/jpet.104.073668 (Temple University, 2005).
